# According to PubChem BioAssay AID2592 (National Center for Advancing Translational Sciences (NCATS), 2010):
# Chains of the proteins cited; added tags and fusions are not shown. Lines headed by an entry give the natural chain unless they say otherwise; changes in a name come on top.
# UniProt P04062: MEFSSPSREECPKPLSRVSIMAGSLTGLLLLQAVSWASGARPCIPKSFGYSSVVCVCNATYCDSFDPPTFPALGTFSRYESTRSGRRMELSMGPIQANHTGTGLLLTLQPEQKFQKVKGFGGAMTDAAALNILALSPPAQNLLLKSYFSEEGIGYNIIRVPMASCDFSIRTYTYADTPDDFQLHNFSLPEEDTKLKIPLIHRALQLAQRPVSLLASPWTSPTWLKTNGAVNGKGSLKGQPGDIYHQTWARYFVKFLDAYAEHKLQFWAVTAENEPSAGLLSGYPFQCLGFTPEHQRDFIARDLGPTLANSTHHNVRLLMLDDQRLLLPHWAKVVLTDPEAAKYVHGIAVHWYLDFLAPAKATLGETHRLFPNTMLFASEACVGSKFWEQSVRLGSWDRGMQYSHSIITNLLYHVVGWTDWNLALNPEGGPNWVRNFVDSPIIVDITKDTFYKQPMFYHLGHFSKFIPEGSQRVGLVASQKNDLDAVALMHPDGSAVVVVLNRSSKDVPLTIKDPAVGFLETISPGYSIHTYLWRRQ
# The entries are a selection whose mix differs from that of the whole data set. Results filed as inconclusive are left out. Active and inactive are the calls of the source. The call rests on the fitted dose curve; in most records, active means well fitted inhibition curve with a large enough effect; inconclusive means small, poorly fitted or top-dose-only effect, or effect the other way; inactive means flat fitted curve, though single readings scatter.
# Target: Lysosomal acid glucosylceramidase (Homo sapiens) (UniProt P04062)
# Assay: qHTS Assay for Inhibitors and Activators of N370S glucocerebrosidase as a Potential Chaperone Treatment of Gaucher Disease: Activity in Non-Mutant Spleen Homogenate
# Details: human spleen homogenate GC, 4MU-glucoside fluorescence
# Description: NIH Chemical Genomics Center [NCGC] NIH Molecular Libraries Probe Production Centers Network [MLPCN] MLPCN Grant: MH086442-01 Assay Submitter (PI): Wei Zheng Glucocerebrosidase (GC) catalyzes the hydrolysis of beta-glucocerebroside to glucose and ceramide in lysosomes. Mutations in the glucocerebrosidase gene result in Gaucher disease, an autosomal recessive lysosomal storage disorder. Many of the mutations encountered in patients with Gaucher disease are missense alterations that may cause misfolding, decreased stability and/or mistrafficking of this lysosomal protein. […]
# NCGC Assay Protocol Summary: This is a fluorogenic enzyme assay with 4-methylumbelliferyl-beta-D-glucopyranoside as the substrate and wildtype glucocerebrosidase from human spleen homogenate as the enzyme preparation. Upon the hydrolysis of this fluorogenic substrate, the resulting product, […] which can be detected by a standard fluorescence plate reader. […] The AC50 values were determined from concentration-response data modeled with the standard Hill equation. […] (5) Add 2 ul stop solution (1M NaOH and 1M Glycine mixture, pH 10) (6) Detect the assay plate in a ViewLux plate reader (PerkinElmer) with Ex=365 nm and Em=440nm. […]
row,Structure (SMILES),Potency
1,COc1ccc(Cl)cc1Nc1nc(NCCO)nc(N2CCCC2)n1,active: 7.94 µM
